Laboratory results taken from ChEMBL document CHEMBL1149646, “2D Quantitative structure-activity relationship studies on a series of cholesteryl ester transfer protein inhibitors” (Bioorg Med Chem, 2007).

Target: T1, Cholesteryl ester transfer protein (Homo sapiens, UniProt P11597)
T1 sequence (P11597 whole entry): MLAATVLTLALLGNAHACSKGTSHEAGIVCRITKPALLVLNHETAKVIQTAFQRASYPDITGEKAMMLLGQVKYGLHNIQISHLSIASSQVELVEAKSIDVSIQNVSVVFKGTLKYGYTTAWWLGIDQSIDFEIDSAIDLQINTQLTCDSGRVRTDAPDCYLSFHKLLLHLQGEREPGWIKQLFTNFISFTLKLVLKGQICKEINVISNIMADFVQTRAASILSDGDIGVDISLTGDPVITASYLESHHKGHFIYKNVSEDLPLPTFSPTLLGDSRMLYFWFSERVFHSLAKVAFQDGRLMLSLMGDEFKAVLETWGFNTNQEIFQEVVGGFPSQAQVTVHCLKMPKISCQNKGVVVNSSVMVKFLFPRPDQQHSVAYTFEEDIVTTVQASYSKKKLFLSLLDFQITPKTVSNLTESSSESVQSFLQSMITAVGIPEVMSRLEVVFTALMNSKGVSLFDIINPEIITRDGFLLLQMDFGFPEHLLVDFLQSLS
Test: Inhibition of CETP

Row | IC50 [nM] | SMILES
1 | 300 | OC(CN(Cc1cccc(OC(F)(F)C(F)F)c1)c1cccc(OCc2cccc(OC(F)(F)F)c2)c1)C(F)(F)F (configuration not stated)
2 | 80 | CCCOc1ccc(Oc2cccc(N(Cc3cccc(OC(F)(F)C(F)F)c3)CC(O)C(F)(F)F)c2)cc1 (configuration not stated)
